# Apparent affinities of Ab-91 variants for a coronavirus HR2 peptide

From the AlphaSeq antibody data of Engelhart et al. 2022 (doi:10.1038/s41597-022-01779-4), copy in the FLAb collection.

The target is the same throughout: PDVDLGDISGINAS, from the HR2 region of SARS-CoV-2 spike.

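In library AAYL51, one, two or three CDR residues were substituted; doubles and triples were drawn at random. The scFvs were displayed on barcoded MATa yeast, the peptide on MATalpha yeast. Binding brings cells together so that they mate, and sequencing counts the barcode pairs among the diploids. Each replicate has its own calibration line, from reference interactions of the BCL2 family. There are three technical replicates.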

The variants keep the light chain, the linker and the frameworks of Ab-91 (scFv order VL, a (GGGGS)3 linker, VH).
VL: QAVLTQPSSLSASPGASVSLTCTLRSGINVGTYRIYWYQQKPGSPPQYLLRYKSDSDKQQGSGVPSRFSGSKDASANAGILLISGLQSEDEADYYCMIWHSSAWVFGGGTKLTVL
VH: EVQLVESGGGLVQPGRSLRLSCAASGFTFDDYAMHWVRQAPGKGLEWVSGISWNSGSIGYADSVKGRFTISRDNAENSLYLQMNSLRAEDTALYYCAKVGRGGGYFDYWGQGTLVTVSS

Changes read parent residue, position, new residue, counted from the first residue of the VH shown.
Values are apparent Kd, the geometric mean of the replicates that gave a signal; lower means stronger binding.
A pair that was not seen in any replicate is written "not detected"; this usually means weak binding, but a binder can also be missed.
Background: pairings of library AAYL51 with three empty control strains gave a value in 21% of cases (median 34 µM, 5th percentile 1.8 µM). Values in that range, when seen in few replicates, are hard to tell from nonspecific mating. For each scFv, signals with the empty controls are counted beside the result.
Parent in this assay: reference entry 72 nM, copy in this library 7.5 nM.

changes,Kd,detected,control signals
F27D M34D S57Y,not detected,0 of 3,0 of 9
K65I V99G D107M,190 µM,2 of 3,5 of 9
I58L S63L F106A,7.4 µM,1 of 3,0 of 9
D31W Y32V V99S,1.8 mM,1 of 3,1 of 9
F29K I51V K65S,49 µM,2 of 3,4 of 9
M34H I51A F106E,not detected,0 of 3,2 of 9
D62N G100N,not detected,0 of 3,0 of 9
G26I S57R V99D,13 µM,1 of 3,0 of 9
M34D S63L R101P,200 µM,1 of 3,0 of 9
Y32S A33K S52M,38 µM,2 of 3,2 of 9
H35W I51K G56M,110 µM,2 of 3,3 of 9
T28G I58H G104Y,not detected,0 of 3,1 of 9
T28K S55E Y105W,14 µM,1 of 3,4 of 9
G100I G103S F106P,30 µM,2 of 3,5 of 9
Y32V M34Q S57W,not detected,0 of 3,0 of 9
I51D G56V G103L,not detected,0 of 3,2 of 9
S55F A61D V99N,not detected,0 of 3,2 of 9
F27L S57D D107M,5.1 µM,2 of 3,0 of 9
S55F G59I D62G,not detected,0 of 3,1 of 9
I51L G59F S63E,not detected,0 of 3,1 of 9
N54S A61S K65P,170 µM,3 of 3,9 of 9
A33H G59S V99G,not detected,0 of 3,0 of 9
F27R F29M K65N,5.7 µM,3 of 3,1 of 9
S52G G56Q I58V,3.3 nM,3 of 3,8 of 9
G50F Y60C D62L,not detected,0 of 3,1 of 9
K65G G103A,210 nM,3 of 3,2 of 9
I51L N54T K65C,not detected,0 of 3,0 of 9
G56F G104Y Y108K,420 µM,2 of 3,6 of 9
D30Y Y60H D62G,190 µM,3 of 3,6 of 9
D31Y N54H V99E,1.1 µM,2 of 3,2 of 9
G59F Y60P Y105R,not detected,0 of 3,0 of 9
F29P V64N K65T,8.4 µM,1 of 3,1 of 9
S52K I58T Y108G,22 µM,2 of 3,3 of 9
G26Q G59T D62H,not detected,0 of 3,0 of 9
I51W V64N R101G,not detected,0 of 3,3 of 9
S52V S57N F106P,640 µM,2 of 3,5 of 9

Further variants, results first:

Kd,detected,control signals,changes
not detected,0 of 3,2 of 9,G26Y D31L I58K
not detected,0 of 3,1 of 9,H35C A61P
5.8 µM,1 of 3,0 of 9,S55K Y60S V99L
not detected,0 of 3,4 of 9,F29S M34K K65M
not detected,0 of 3,0 of 9,G26D T28V D31A
not detected,0 of 3,3 of 9,G26K T28Q G102Y
not detected,0 of 3,2 of 9,A61L S63W R101N
150 µM,1 of 3,3 of 9,G26S G104N D107G
not detected,0 of 3,0 of 9,G26Y D31A A61T
not detected,0 of 3,0 of 9,H35S I51P W53T
380 µM,1 of 3,0 of 9,I58G G59T F106E
not detected,0 of 3,0 of 9,I51C Y60K G103K
14 µM,2 of 3,4 of 9,H35N S52E S55Q
not detected,0 of 3,1 of 9,N54E G59M R101A
not detected,0 of 3,0 of 9,V64N G104I Y108F
63 µM,3 of 3,9 of 9,I58T Y105V
not detected,0 of 3,0 of 9,T28A V64D D107V
not detected,0 of 3,0 of 9,F29G V64M Y105S
not detected,0 of 3,1 of 9,Y32P A33E Y108H
180 nM,3 of 3,0 of 9,T28Y D31A Y108E
not detected,0 of 3,3 of 9,G56R K65P V99Q
94 µM,3 of 3,4 of 9,S55E K65T Y105R
74 µM,1 of 3,1 of 9,W53M G59S Y60H
5.1 µM,1 of 3,0 of 9,Y60P D62Y
360 nM,3 of 3,6 of 9,T28V Y32N K65Q
210 µM,2 of 3,1 of 9,F27K F29R
not detected,0 of 3,0 of 9,I51P N54C V64G
not detected,0 of 3,1 of 9,F27I I51F K65D
52 µM,1 of 3,1 of 9,D31W Y60T G103P
10 µM,1 of 3,0 of 9,I58W D62T
180 nM,2 of 3,0 of 9,A61H S63M G103S
980 µM,1 of 3,0 of 9,W53G D62C F106T
not detected,0 of 3,0 of 9,T28D G50L G104D
not detected,0 of 3,0 of 9,A33H V99S D107A
not detected,0 of 3,3 of 9,K65P V99W F106L
33 µM,1 of 3,1 of 9,T28H Y32P H35V